Assay results as given in patent US9346810B2, “Pyrrolopyrimidine compounds and uses thereof” (HUTCHISON MEDIPHARMA LIMITED, priority 2010, dated 2016).

Amino acid sequences for entries named in this document (tags omitted). Residues count along the entry.
UniProt P23458, 875-1153: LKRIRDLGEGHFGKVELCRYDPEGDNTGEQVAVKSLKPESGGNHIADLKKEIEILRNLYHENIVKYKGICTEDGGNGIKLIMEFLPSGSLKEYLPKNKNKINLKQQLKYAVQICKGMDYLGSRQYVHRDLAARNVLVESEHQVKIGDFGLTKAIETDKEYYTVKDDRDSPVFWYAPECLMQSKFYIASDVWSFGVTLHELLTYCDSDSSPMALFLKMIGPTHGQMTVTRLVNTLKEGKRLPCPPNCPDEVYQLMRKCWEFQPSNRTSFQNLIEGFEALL

Target: Recombinant human JAK1 catalytic domain (Homo sapiens (Human), UniProt P23458)
Assay: JAK1 kinase assay (Z'-LYTE, Tyr 6 Peptide)
Type: biochemical
Conditions: read-out: JAK1 (enzyme, IC50)
Procedure: JAK1/2/3 kinase assay are performed in vitro using Kit-Tyr 6 Peptide (Invitrogen, Cat. No. PV4122). TYK2 kinase assay are performed in vitro using Z′-LYTE™ Kinase Assay Kit-Tyr 3 Peptide (Invitrogen, Cat. No. PV3192). […] All compounds are initially tested at 8 different concentrations (1 μM down to 0.0003 μM) using a 1:3 serial dilution scheme.

IC50 [nM]	SMILES
119	CNS(=O)(=O)N(C)[C@@H]1CCN(c2ncnc3[nH]ccc23)C1 [Compound 47]
2	CN(c1ccc(C(=O)N[C@@H]2c3ccccc3C[C@H]2O)cc1F)[C@@H]1CCN(c2ncnc3[nH]ccc23)C1 [Compound 206]
